Structures can show the parent of a compound that is named as a salt.
Columns and labels:
[1] = Spectral properties (absorption/emission) of new pyrenyloxy sulfonic acid dyes, Table 4; assay type: physicochemical; conditions: 50 mM aqueous potassium phosphate buffer at pH 8.0; for Em Max: uncorrected
Description: Stock solutions were prepared by accurately weighing and dissolving 5-10 mg samples of the compounds in 2.000 ml water. A 10 μl aliquot of the stock solution was diluted into 2.00 ml of 50 mM potassium phosphate buffer at pH 8.0. Absorbance solutions were prepared by further diluting 200 μl of the diluted stock solution to 2.000 ml with 50 mM potassium phosphate buffer at pH 8.0. Absorption data was collected on an IBM Model 9420 UV/Visible Spectrophotometer and extinction coefficients were determined by standard Beer's Law calculations.
Uncorrected fluorescence data was obtained on a Perkin-Elmer Model 650-40 Fluorescence Spectrophotometer equipped with a Perkin-Elmer/Hitachi 057 X-Y Recorder using a ten- to twentyfold dilution of the absorbance solutions. Fluorescence of the pyrenyloxy sulfonic acid dyes was determined for the reactive dyes and for their conjugates with model compounds by dissolving the dye at a concentration above 1×10^-8M in an appropriate solvent such as water, methanol, ethanol, or dimethylsulfoxide and measurement of the fluorescence in a suitable instrument, such as a fluorescence spectrometer or fluorescence microscope or flow cytometer. Fluorescence could also be observed for the dyes in solution by visual inspection with illumination by a suitable source that emits light at wavelengths of less than 420 nm.

[2] = Comparison of spectral properties of reactive dyes, Table 1; assay type: physicochemical
From the text: A number of dyes have been proposed in the literature that can be excited and detected at wavelengths less than 500 nm. Several chemically reactive fluorophores that can be excited in the near ultraviolet and short wavelength visible region of the spectrum have been described. […] These proposed tracers are derived from naphthalene derivatives such as 5-dimethylaminonaphthalene-1-sulfonic acid (Dansyl) [Weber, Biochem. J. 41:145 (1952); Rinderknecht, Experientin 16:430 (1960)], 3-(isothiocyanato)naphthalene-1,5-disulfonic acid [Braunitzer, et al., Hoppe-Seyler's Z. Physiol. […] Chem. 358:505 (1977)], pyrene derivatives such as pyrene-1-butyric acid (PBA) [Malencik & Anderson, Biochemistry 11:3022 (1972)], 8-isothiocyanatopyrene-1,3,6-trisulfonic acid (IPTS) [Braunitzer,et al., Hoppe-Seyler's Z. Physiol. Chem. 354:1536 (1973)] and 8-hydroxypyrene-1,3,6-trisulfonyl chloride [Wolfbeis, Fresenies Z. Anal. Chem. 320:271 (1985)], stilbene derivatives such as 4-acetamido-4'-isothiocyanatostilbene-2,2'-disulfonic acid (SITS) [Cornelisse & Ploem, J. Histochem. Cytochem. 24:72 (1976)], and coumarin dyes such as 3-carboxy-7-hydroxycoumarin [Baker & Collis, J. Chem. Soc. 1949, S 12 (1949)], 7-hydroxy-4-methylumbelliferone-3-acetic acid (4-MUA) [Khalfan, et al., Biochem. J. 209:265 (1983)], 7-amino-4-methylcoumarin-3-acetic acid (AMCA) [Khalfan, et al., Histochem. […]

[3] = second (shorter-wavelength) maximum

1,3,6-Trisulfo-8-pyrenyloxyacetamido-dextranamine [Compound 5]
Emission Band-width [1]: 50 nm
Emission at 514 nm [1]: 4.5 % of max
Em Max [1]: 423 nm
Abs Max ([1]; first (longer-wavelength) maximum): 400 nm
Abs Max [1, 3]: 378 nm

NCCNC(=O)COc1cc(S(=O)(=O)O)c2ccc3c(S(=O)(=O)O)cc(S(=O)(=O)O)c4ccc1c2c43 [Compound 3, 1,3,6-Trisulfo-8-pyrenyloxyacetamido-1-(2-aminoethane), trisodium salt]
Em Max [1]: 423 nm
Abs Max [1, 3]: 378 nm

O=C(COc1cc(S(=O)(=O)O)c2ccc3c(S(=O)(=O)O)cc(S(=O)(=O)O)c4ccc1c2c43)NCCO [Compound 10]
Em Max [1]: 423 nm

NNC(=O)COc1cc(S(=O)(=O)O)c2ccc3c(S(=O)(=O)O)cc(S(=O)(=O)O)c4ccc1c2c43 [Compound 11, 1,3,6-Trisulfo-8-pyrenyloxyacethydrazide, free sulfonic acid]
Em Max [1]: 423 nm

NNC(=O)COc1cc(S(=O)(=O)[O-])c2ccc3c(S(=O)(=O)[O-])cc(S(=O)(=O)[O-])c4ccc1c2c43.[Na+].[Na+].[Na+] [Compound 12, 1,3,6-Trisulfo-8-pyrenyloxyacethydrazide, trisodium salt]
Em Max [1]: 423 nm
Em. Max. [2]: 423 nm

N.N.N.NNC(=O)COc1cc(S(=O)(=O)O)c2ccc3c(S(=O)(=O)O)cc(S(=O)(=O)O)c4ccc1c2c43 [Compound 13, 1,3,6-Trisulfo-8-pyrenyloxyacethydrazide, triammonium salt]
Em Max [1]: 423 nm

CC(C)(C)OC(=O)N1CCC[C@H]1C(=O)NCCNC(=O)COc1cc(S(=O)(=O)[O-])c2ccc3c(S(=O)(=O)[O-])cc(S(=O)(=O)[O-])c4ccc1c2c43.[Na+].[Na+].[Na+] [Compound 14, N-(1,3,6-Trisulfo-8-pyrenyloxyacetyl)-N'-(N-t-butoxycarbonyl-L-prolyl)-1,2-ethanediamine, trisodium salt]
Abs Max [1, 3]: 378 nm

CC(C)(C)OC(=O)N1CCC[C@H]1C(=O)NCCCCCNC(=O)COc1cc(S(=O)(=O)O)c2ccc3c(S(=O)(=O)O)cc(S(=O)(=O)O)c4ccc1c2c43 [Compound 15]
Em Max [1]: 423 nm

N#CCCCCCNC(=O)COc1cc(S(=O)(=O)O)c2ccc3c(S(=O)(=O)O)cc(S(=O)(=O)O)c4ccc1c2c43 [Compound 16]
Em Max [1]: 423 nm

C=CC(=O)NCCCCCNC(=O)COc1cc(S(=O)(=O)O)c2ccc3c(S(=O)(=O)O)cc(S(=O)(=O)O)c4ccc1c2c43 [Compound 19]
Em Max [1]: 423 nm
Abs Max [1, 3]: 378 nm

[N-]=[N+]=Nc1ccc(C(=O)NCCCCCNC(=O)COc2cc(S(=O)(=O)[O-])c3ccc4c(S(=O)(=O)[O-])cc(S(=O)(=O)[O-])c5ccc2c3c54)cc1.[Na+].[Na+].[Na+] [Compound 20, N-(1,3,6-Trisulfo-8-pyrenyloxyacetyl)-N'-(4-azidobenzoyl)-1,5-pentanediamine, trisodium salt]
Abs Max [1, 3]: 378 nm
